Data taken from patent US8551984B2, “Aminopyrimidines as SYK inhibitors” (Merck Sharp & Dohme Corp., priority 2009, dated 2013).
Like-named read-outs stand apart in the source and are kept apart here.

Target: recombinant human SYK (GST-hSYK fusion protein) (Homo sapiens, UniProt P43405)

IC50 (tested form: formate) [nM] | IC50 [nM] | SMILES
< 100 |  | COC(=O)C1CCC(C(=O)N2CCC(O)(c3ncc(-c4cc(C)cc(Nc5nccc(C(F)(F)F)n5)c4)s3)CC2)CC1 (centres unmarked)
 | < 100 | Cc1cc(Nc2nccc(C(F)(F)F)n2)cc(-c2cnc(C3(O)CCN(C(=O)Nc4ccc(C#N)cc4)CC3)s2)c1
